Laboratory results reported in US10968236B2, “TYK2 inhibitors and uses thereof” (Nimbus Lakshmi, Inc., priority 2015, dated 2021).

By UniProt entry, the sequences of proteins in these tests, tags left out.
UniProt O60674, whole entry: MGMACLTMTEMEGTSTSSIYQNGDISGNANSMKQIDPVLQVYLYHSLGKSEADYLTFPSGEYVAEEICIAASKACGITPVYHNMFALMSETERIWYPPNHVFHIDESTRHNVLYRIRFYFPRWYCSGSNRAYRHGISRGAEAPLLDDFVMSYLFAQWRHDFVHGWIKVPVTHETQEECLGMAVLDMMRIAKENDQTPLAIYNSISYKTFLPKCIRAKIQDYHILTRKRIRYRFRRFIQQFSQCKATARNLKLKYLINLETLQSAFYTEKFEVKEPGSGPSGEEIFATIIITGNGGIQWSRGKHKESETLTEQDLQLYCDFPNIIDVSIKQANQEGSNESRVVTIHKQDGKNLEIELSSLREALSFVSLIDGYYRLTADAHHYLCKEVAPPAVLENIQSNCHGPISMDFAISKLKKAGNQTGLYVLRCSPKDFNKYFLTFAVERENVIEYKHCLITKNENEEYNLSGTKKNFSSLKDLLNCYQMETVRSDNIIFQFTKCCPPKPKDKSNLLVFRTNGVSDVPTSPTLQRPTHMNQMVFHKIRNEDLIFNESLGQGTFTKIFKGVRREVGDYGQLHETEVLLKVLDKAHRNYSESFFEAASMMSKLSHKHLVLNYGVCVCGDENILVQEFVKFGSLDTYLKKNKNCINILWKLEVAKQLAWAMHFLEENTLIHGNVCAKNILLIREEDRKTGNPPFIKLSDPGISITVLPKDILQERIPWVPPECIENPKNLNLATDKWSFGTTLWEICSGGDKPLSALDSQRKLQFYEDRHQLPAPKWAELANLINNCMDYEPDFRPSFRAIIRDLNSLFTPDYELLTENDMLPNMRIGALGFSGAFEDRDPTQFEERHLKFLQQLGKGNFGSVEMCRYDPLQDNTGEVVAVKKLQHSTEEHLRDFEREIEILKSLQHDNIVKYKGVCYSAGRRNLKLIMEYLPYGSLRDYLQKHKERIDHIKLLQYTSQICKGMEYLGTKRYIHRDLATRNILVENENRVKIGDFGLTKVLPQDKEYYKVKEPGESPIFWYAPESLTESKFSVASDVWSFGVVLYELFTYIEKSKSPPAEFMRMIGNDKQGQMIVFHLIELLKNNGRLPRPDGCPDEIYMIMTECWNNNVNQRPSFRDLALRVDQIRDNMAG
UniProt P29597, whole entry: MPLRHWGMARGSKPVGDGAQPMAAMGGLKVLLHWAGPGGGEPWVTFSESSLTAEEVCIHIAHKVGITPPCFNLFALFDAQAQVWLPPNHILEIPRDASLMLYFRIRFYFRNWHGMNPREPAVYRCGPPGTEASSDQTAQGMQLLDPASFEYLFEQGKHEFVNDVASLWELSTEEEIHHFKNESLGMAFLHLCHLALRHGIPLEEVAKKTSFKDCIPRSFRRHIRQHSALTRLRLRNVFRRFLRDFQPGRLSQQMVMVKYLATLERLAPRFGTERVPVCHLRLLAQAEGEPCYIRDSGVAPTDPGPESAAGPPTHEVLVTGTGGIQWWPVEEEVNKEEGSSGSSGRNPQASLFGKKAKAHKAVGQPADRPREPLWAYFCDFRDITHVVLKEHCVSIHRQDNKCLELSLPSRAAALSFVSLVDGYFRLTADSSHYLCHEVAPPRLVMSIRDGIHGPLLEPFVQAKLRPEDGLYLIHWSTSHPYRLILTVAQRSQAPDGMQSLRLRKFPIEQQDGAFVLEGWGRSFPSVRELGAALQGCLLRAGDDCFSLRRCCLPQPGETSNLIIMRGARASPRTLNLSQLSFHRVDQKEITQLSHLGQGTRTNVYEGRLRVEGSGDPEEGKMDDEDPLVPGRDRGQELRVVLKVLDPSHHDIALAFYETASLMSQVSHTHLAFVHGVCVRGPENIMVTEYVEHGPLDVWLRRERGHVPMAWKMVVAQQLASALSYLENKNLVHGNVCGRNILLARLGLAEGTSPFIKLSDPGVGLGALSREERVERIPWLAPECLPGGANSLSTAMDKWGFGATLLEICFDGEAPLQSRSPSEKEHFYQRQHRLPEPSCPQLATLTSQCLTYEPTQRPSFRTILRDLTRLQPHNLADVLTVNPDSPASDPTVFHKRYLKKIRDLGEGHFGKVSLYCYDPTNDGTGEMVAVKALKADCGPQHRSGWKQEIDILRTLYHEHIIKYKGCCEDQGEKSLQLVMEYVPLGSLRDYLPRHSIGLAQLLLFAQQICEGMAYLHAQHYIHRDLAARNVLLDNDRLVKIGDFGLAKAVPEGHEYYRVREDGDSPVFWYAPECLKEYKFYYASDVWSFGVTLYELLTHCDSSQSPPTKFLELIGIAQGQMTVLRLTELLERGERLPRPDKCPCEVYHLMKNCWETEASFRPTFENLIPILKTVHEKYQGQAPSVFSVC

How the values were obtained:
JAK2 = JAK2 (Homo sapiens (Human), UniProt O60674); test: JAK2 activity inhibition assay (radioactive kinase / Caliper assay); details: read-out: JAK2 Ki
Procedure: (§1) Peptide substrate, [KKSRGDYMTMQIG], (20 μM) is prepared in reaction buffer (20 mM Hepes pH 7.5, 10 mM MgCl2, 1 mM EGTA, 0.02% Brij35, 0.02 mg/mL BSA, 0.1 mM […], 2 mM DTT, 1% DMSO. TYK2 (Invitrogen) kinase is added, followed by compounds in DMSO. 33PATP is added to initiate the reaction in ATP at 10 μM. Kinase reaction is incubated for 120 min at room temp and reactions are spotted onto P81 ion exchange paper (Whatman #3698-915), and then washed extensively in 0.75% phosphoric acid, prior to reading the radioactivity counts. For JAK2 (Invitrogen) kinase assay the peptide substrate poly[Glu:Tyr] (4:1), 0.2 mg/ml is used, in the reaction carried out the same as for TYK2.
(§2) The caliper machine employs an off chip mobility shift assay to detect phosphorylated peptide substrates from kinase assays, using microfluidics technology. The assays are carried out at ATP concentration equivalent to the ATP Km, and at 1 mM ATP. Compounds are serially diluted in DMSO then further diluted in assay buffer (25 mM HEPES, pH 7.5, 0.01% Brij-35, 0.01% Triton, 0.5 mM EGTA). […] Reaction was incubated at 28° C. for 25 min and then added 25 ul stop buffer (100 mM HEPES, 0.015% Brij-35, 50 mM EDTA), followed by reading with Caliper. […]

[1] = system: IL-12 induced pSTAT4 (Tyk2-pSTAT4); test: IL-12 Induced pSTAT4 in human PBMC; details: read-out: Tyk2-pSTAT4 EC50, IL-12 1.7 ng/mL
Procedure: IL-12 Induced pSTAT4 in human PBMC. Human PBMC are isolated from buffy coat and are stored frozen for assays as needed. Cells for assay are thawed and resuspended in complete media containing serum, then cells are diluted to 1.67 E6 cells/ml so that 120 μl per well is 200,000 cells. 15 μl of compound or DMSO is added to the well at the desired concentrations and incubated at 1 hr at 37 C. 15 μl of stimulus (final concentration of 1.7 ng/mL IL-12) is added for 30 minutes prior to pSTAT4 and total STAT4 analysis using cell lysates prepared and analyzed by MSD reagents as per manufacturer protocol. The final DMSO concentration of compound in the assay is 0.1%.
(§3) The compound numbers correspond to the compound numbers in Table 1. Compounds having an activity designated as “A” provided an EC50≤2 μM; compounds having an activity designated as “B” provided a EC50 of 2-20 μM, and compounds having an activity designated as “C” provided an EC50>20 μM.

TYK2 = TYK2 (Homo sapiens (Human), UniProt P29597); test: Tyk2 activity inhibition assay (radioactive kinase / Caliper assay); details: read-out: Tyk2 Ki
Procedure: as §1, §2

[2] = system: GM-CSF induced pSTAT5 (JAK2-pSTAT5); test: GM-CSF Induced pSTAT5 in human PBMC; details: read-out: JAK2-pSTAT5 EC50, GM-CSF 5 ng/mL
Procedure: GM-CSF Induced pSTAT5 in human PBMC. Cells are prepared for analysis as in the above procedure and 15 μl of GM-CSF (final concentration 5 ng/mL) is added for 20 minutes prior to pSTAT5 and total STAT5 analysis using cell lysates prepared and analyzed by MSD reagents as per manufacturer protocol. The final DMSO concentration of compound in the assay is 0.1%.
as §3

## N#Cc1cccc(F)c1-c1cc(Nc2ccc(N3CCC4(CC3)CC4)cn2)c2c(n1)CNC2=O
JAK2
  Ki: < 10 nM
[1]
  EC50: < 2000 nM
TYK2
  Ki: < 10 nM
[2]
  EC50: 2000 to 20000 nM
